Results on 46 compounds are retold here after PubChem BioAssay AID686940 (The Scripps Research Institute Molecular Screening Center, 2013).

By UniProt entry, the sequences of proteins in these tests, tags left out. Where a name states a change or a piece, a line headed by the entry shows the natural chain unless it says otherwise.
UniProt P24468: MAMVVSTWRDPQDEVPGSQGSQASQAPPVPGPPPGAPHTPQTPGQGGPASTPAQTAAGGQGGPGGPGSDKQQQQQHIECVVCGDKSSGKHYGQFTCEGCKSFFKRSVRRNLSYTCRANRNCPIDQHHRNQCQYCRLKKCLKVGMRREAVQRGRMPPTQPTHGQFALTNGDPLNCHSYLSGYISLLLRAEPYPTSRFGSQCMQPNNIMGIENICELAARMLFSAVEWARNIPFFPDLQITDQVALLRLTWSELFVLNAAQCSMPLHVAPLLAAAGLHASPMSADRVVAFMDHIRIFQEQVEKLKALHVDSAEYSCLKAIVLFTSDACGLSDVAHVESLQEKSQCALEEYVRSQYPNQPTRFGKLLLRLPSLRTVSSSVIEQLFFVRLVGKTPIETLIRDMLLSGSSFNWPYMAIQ

Only a part is listed here, and it is no random draw. Calls of active or inactive are those of the source.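 The calls were made as follows: active = inhibition above a per-plate cutoff, mean inhibition of test wells between control levels plus 3 SD (cut at about 38% in these data); inactive = the rest.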

The target of this experiment is COUP transcription factor 2 (Homo sapiens) (UniProt P24468). The experiment is described as follows: COUP-TFII reporter suppression in human cells – cell-based, luciferase reporter, HEK293T, luminescence, primary screen (AID 686940).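 Also: cells cotransfected with COUP-TFII expression vector driving the NGFI-A reporter; 0% = median of COUP-TF2 test wells and 100% = reporter-only cells.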 The following applies: HEK293T NGFI-A luciferase reporter, at 8.6 µM, active compounds read high.
A word on the inhibition: it is the drop in the measured response relative to a control, in per cent. For the compound `CCCOP(=S)(Nc1nc(N)cc(=O)[nH]1)OCCC`, the inhibition is inactive: -1.74%.
Regarding `CCOP(=O)(Nc1cccc2ccccc12)OCC`, the inhibition was inactive: -8.3%.
`COc1cc(C2NCCC3(OCCO3)C2(C)C)cc(OC)c1OC` (stereo unspecified): the inhibition was inactive: 6.24%.
As to `O=C(OC1CN2CCC1CC2)c1ccc(Cl)cc1` (stereo unspecified), the inhibition was inactive: 1.34%.
As to `CS(=O)(=O)c1ccc(Cl)c(NC(=O)COC(=O)C(O)(c2ccccc2)c2ccccc2)c1`, the inhibition is inactive: -0.65%.
As to `COc1cc(C(=O)NCC2(N3CCOCC3)CCCCC2)cc(Cl)c1OC(C)C`, the inhibition was inactive: 22.6%.
For the compound `O=[As](O)(O)c1cccnc1`, the inhibition was inactive: 2.6%.
Regarding `O=[As](O)(c1cccc(O)c1)c1cccc(O)c1`, the inhibition was inactive: 0.57%.
As for `Cc1cccc(OCC(=O)OC2CN3CCC2CC3)c1` (stereo unspecified), the inhibition is inactive: 4.52%.
With `NC(=O)Nc1ccc([As](=O)(O)O)cc1`, the inhibition was inactive: -0.55%.
Consider `CCOP1(=S)c2c(C)nn(CCC#N)c2N=C(c2ccc(F)cc2)N1C` (stereo unspecified), for which the inhibition was inactive: 12.7%.
`CN(C(=O)Cc1ccccc1)[C@@H]1CC[C@]2(CCCO2)C[C@H]1N1CCCC1`: the inhibition was inactive: 2.45%.
Turning to `N#CCCN(C(=O)COC(=O)C(O)(c1ccccc1)c1ccccc1)c1ccc(F)cc1`, the inhibition was inactive: 3.92%.
Consider `CN(C(=O)Cc1ccc(Cl)c(Cl)c1)[C@H]1CC[C@@]2(CCCO2)C[C@@H]1N1CCCC1`, for which the inhibition was inactive: 13.6%.
For the compound `CN(C)C(=O)c1cc([N+](=O)[O-])cc2c1-c1c(cc([N+](=O)[O-])cc1[N+](=O)[O-])C2=O`, the inhibition is inactive: 0.07%.
As for `O=[N+]([O-])c1ccc2c(c1)nnn2O`, the inhibition is inactive: 3.28%.
As for `O=P(Nc1nccs1)(Oc1ccccc1)Oc1ccccc1`, the figure is inactive: 10.8%.
For `CCOP1(=S)c2c(C)nn(CCC#N)c2N=C(c2ccccc2F)N1C` (stereo unspecified), the inhibition was inactive: 14.3%.
For `Nc1ccccc1[As](=O)(O)c1ccccc1`, the inhibition is inactive: -17.3%.
As to `O=C(O)COc1ccc([As](=O)(O)O)cc1[N+](=O)[O-]`, the inhibition is inactive: 29.6%.
For `Cc1ccc(S(=O)(=O)N(CCCN)CCCc2c(C)nc(N)[nH]c2=O)cc1`, the inhibition is inactive: -1.21%.
In the case of `O=P1(Nc2ncccn2)COc2ccccc2OC1`, the inhibition was inactive: 11.5%.
The result for `Nc1cccc([As](=O)(O)c2ccccc2)c1` reads inactive: -13.9%; that for `O=P1(Nc2ccc(Br)cn2)COc2ccccc2OC1`, inactive: 1.09%.
For `NS(=O)(=O)c1cccc(NC(=O)COC(=O)C(O)(c2ccccc2)c2ccccc2)c1`, the inhibition was inactive: -9.42%.
`O=[As](O)(c1cccs1)c1cccs1`: the inhibition is inactive: 0.29%.
Turning to `Cc1ccc(OCC(=O)OC2CN3CCC2CC3)cc1` (stereo unspecified), the inhibition was inactive: -3.91%.
Consider `CC1CCC(C(C)C)C(OP(=O)(Nc2ccccn2)c2ccccc2)C1` (stereo unspecified), for which the inhibition was inactive: -1.8%.
As for `Cc1ccc(C(=O)OC2CN3CCC2CC3)cc1` (stereo unspecified), the inhibition is inactive: 5.21%.
On to `Cc1nn(-c2ccccc2)c2c1P(=O)(N1CCOCC1)N(C)C(c1ccccc1)=N2` (stereo unspecified), for which the inhibition was inactive: -3.72%.
In the case of `CN(C)C1(CNC(=O)c2ccc(S(C)(=O)=O)cc2)CCCCC1`, the inhibition is inactive: -8.44%.
Regarding `CCCC1OP(=O)(Nc2ccccc2)OCC1CC` (stereo unspecified), the inhibition was inactive: 0.83%.
`O=C(/C=C/c1ccccc1)OC1CN2CCC1CC2` (stereo unspecified): the inhibition is inactive: -13%.
As for `COc1ccccc1CNC(=O)COC(=O)C(O)(c1ccccc1)c1ccccc1`, the inhibition is inactive: 9.71%.
In the case of `CN(C(=O)Cc1ccc(Cl)c(Cl)c1)C1CCCC[C@@H]1N1CCCC1` (stereo partly specified), the inhibition was inactive: -5.65%.
In the case of `CC(C)/C=N\N=C(\N)N[N+](=O)[O-]`, the inhibition was inactive: -2.82%.
On to `CN(C(=O)Cc1ccc(Cl)c(Cl)c1)[C@@H]1CCCC[C@H]1N1CCCC1`, for which the inhibition was inactive: -8.17%.
Take `CC1(CBr)Cn2c(nc3ccccc3c2=O)S1` (stereo unspecified): the inhibition is inactive: 13.1%.
For `CCOP(=O)(NC(=NC(C)c1ccccc1)NC(C)c1ccccc1)OCC` (stereo unspecified), the inhibition is inactive: -5.11%.
In the case of `O=P1(Nc2ccccn2)COc2ccccc2OC1`, the inhibition is inactive: 9.99%.
Consider `CCC1=CC2Cc3nc4ccc(Cl)cc4c(N)c3C(C1)C2` (stereo unspecified), for which the inhibition is inactive: 17.9%.
Turning to `CN(CCCl)Cc1cc(Cl)c(NC2=NCCN2)c(Cl)c1`, the inhibition is inactive: 4.96%.
For `CCOP(=O)(Nc1ccc(C)cn1)OCC`, the inhibition is inactive: 3.91%.
As for `CC(C)(C)C(=O)NC(Sc1ncccn1)C(Cl)(Cl)Cl` (stereo unspecified), the inhibition was inactive: 9.15%.
With `O=P1(N(CCCl)CCCl)NCCC(C(F)(F)F)O1` (stereo unspecified), the inhibition was inactive: -8.42%.
Turning to `Clc1n[nH]nc1-c1nn[nH][15n]1`, the inhibition was inactive: 0.23%.
